Here are results for 1 substance from article PMC6944907.

The experiment addresses SAMHD1 109–626 with His tag (human) (UniProt Q9Y3Z3). In words: MST.

Consider “TRIM21-PRY&SPRY motif with GST tag (domain or fragment)”, for which the Kd (in general, the free concentration of one partner at which half of the binding sites on the other are occupied at equilibrium, for simple one-to-one binding) amounted to 270 nM.
